Measurements published in patent US11701360B2, “Composition for inducing differentiation and protection of neural stem cells and method for inducing neuro-regeneration using the same composition” (GENUV Inc., priority 2017, dated 2023).

Test system: mouse adult neural stem cells
Conditions: 10 μM amyloid-beta; compound 10 μM; second day of culture

O=C(NOC[C@H](O)CO)c1ccc(F)c(F)c1Nc1ccc(I)cc1F [PD0325901]
cell protection and differentiation of NSC under amyloid-beta cytotoxicity: provided cell protection and induced the differentiation of NSC
